Data published in patent US20130030006A1, “AGENT FOR PREVENTING OR TREATING DISEASES ACCOMPANIED BY URINARY PAIN” (priority 2010, published 2013).
pIC50: −log10 of the molar value.

Protein sequences, listed by entry. Tags and fused reporters are not part of them.
UniProt O00519, whole entry, looked up: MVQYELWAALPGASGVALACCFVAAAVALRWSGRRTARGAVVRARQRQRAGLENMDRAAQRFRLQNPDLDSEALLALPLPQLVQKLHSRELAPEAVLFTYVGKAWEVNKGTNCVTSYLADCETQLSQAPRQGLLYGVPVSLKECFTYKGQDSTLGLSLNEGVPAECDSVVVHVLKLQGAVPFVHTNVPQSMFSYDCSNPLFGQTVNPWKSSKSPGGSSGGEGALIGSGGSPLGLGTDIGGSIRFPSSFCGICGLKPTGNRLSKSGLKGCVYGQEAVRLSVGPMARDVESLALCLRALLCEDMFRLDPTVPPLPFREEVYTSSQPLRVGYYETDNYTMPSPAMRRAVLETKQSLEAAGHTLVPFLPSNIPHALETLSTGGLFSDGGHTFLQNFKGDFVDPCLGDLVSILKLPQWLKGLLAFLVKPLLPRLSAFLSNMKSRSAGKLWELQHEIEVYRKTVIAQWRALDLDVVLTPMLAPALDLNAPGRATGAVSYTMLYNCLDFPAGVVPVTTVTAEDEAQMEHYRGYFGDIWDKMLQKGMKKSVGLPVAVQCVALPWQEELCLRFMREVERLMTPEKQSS

Key:
FAAH = FAAH (Homo sapiens, UniProt O00519); test: Measurement of IC50 value of substance inhibiting FAAH activity using human bladder epithelial carcinoma-derived cell line 5637; assay type: cell-based; settings: 5637 cells, radiolabeled anandamide substrate, 30 minutes at 37° C.; URB597 10 μM = 0%, DMSO = 100%
Protocol: Screening of Substance Inhibiting FAAH Activity by Using Human Bladder Epithelial Carcinoma-Derived Cell Line
(1) Screening of Substance Inhibiting FAAH Activity
Human bladder epithelial carcinoma-derived cell line, 5637 cells (HTB-9; ATCC) were seeded in a 48-well cell culture plate in an amount of 1×10^5 cells/well by using RPMI 1640 medium (Invitrogen) containing 10% fetal bovine serum (HyClone), followed by incubation at 37° C. for 12 hours or longer, and then the cells in each well were washed with 400 μl of a buffer (Hank's Balanced Salt Solution, 20 mM Hepes-NaOH (pH 7.4)). A test substance dissolved in DMSO was added to a substrate solution (the above buffer containing 3 μCi/ml radiolabeled anandamide (anandamide [ethanolamine 1-^3H]) and 10 μM anandamide) so as to have a concentration from 0.003 nM to 30 nM, and as a control, DMSO was added alone. 100 μl/well of the substrate solution was added to the cells, followed by incubation in a CO2 incubator at 37° C. for 30 minutes. Thereafter, the cell culture plate was transferred onto ice, the substrate solution was removed by suction, and 75 μl/well of a cytolytic solution that have been ice-cooled (the above buffer containing 0.5% TritonX-100 and 10 μM of a compound cyclohexylcarbamic acid 3′-carbamoylbiphenyl-3-yl ester (URB597; Cayman Chemical Company; Kathuria et al., Nature Med., Vol. 9, pp 76-81, 2003) having FAAH inhibitory activity) was added thereto, followed by stirring. The obtained cell lysate was transferred from each well to a sample tube having a volume of 1.5 ml, and 150 μl of a solution including chloroform and methanol at a ratio of 1:1 (volume ratio) was added thereto, followed by stirring. By centrifugation (15000 rpm for 2 minutes), the solution was divided into the upper layer (water/methanol layer) containing the decomposed product ethanolamine (ethanolamine 1-^3H) and the lower layer (chloroform layer) containing unreacted radiolabeled anandamide. […] A substance decreasing a measured value compared to the control was selected as a substance inhibiting FAAH activity. […]

[1] = test system: rat with cyclophosphamide (CPA)-induced urinary frequency; test: Rat with cyclophosphamide (CPA)-induced urinary frequency, effective bladder capacity; settings: female Wistar rats, two days after CPA 100 mg/kg i.p., urine measured for 1 hour
[2] = test system: rat model with bladder pain; test: Rat model with bladder pain (cyclophosphamide pre-treated, bladder expansion); assay type: in vivo; settings: male SD rats, 3 mg/5 ml/kg oral, change before vs after administration
Protocol: Action of Compound with Respect to Rat Model with Bladder Pain
The analgesic action of the compound against bladder pain was examined using a pathological model. Cyclophosphamide (150 mg/kg) was administered intraperitoneally, and after two days, physiological saline was injected under a non-restraint condition, at a rate of 45 ml/h via a cannula inserted transurethrally into the bladder, thereby rapidly expanding the bladder. Due to rapid expansion of the bladder, amplification of electromyogram spikes in external oblique abdominal muscle accompanying behavior relating to pain was confirmed. The injection amount at this point in time can be taken as a threshold of bladder pain, which makes it possible to evaluate drug efficacy with respect to the threshold of bladder pain. […] For the rats pre-treated with cyclophosphamide, the threshold of bladder pain before and after the administration of a test compound was measured, and the change in amount (Δ ml) was investigated. In order to obtain a value before administration, bladder expansion was performed until a stabilized threshold of bladder pain was consecutively obtained three times, and the average of the threshold of bladder pain of the final three times was taken as a measured value. […] The average of the threshold of bladder pain consecutively measured three times was taken as a value measured after administration.

[3] = test system: rat model with testis pain; test: Rat model with testis pain (acetic acid into testes, writhing); assay type: in vivo; settings: male Wistar rats, 3 mg/5 ml/kg oral, counted 5 to 15 minutes after acetic acid
Protocol: Action of Compound with Respect to Rat Model with Testis Pain
The analgesic action of the compound against testis pain was examined using a pathological model. If 1% acetic acid is administered at 1 ml/kg to right and left testes of a rat by using an injection needle, pain behavior (writhing) accompanied by testis pain is observed, which makes it possible to evaluate drug efficacy on the pain behavior. […] The rats were transferred to a cylindrical acryl cage having a diameter of 30 cm and a height of 50 cm, and the number of times of pain behavior shown for 5 minutes to 15 minutes after the acetic acid administration was measured.

With `COC(=O)c1cncc(OC(=O)N2CCN(CCc3ccccc3)CC2)c1` the pIC50 (FAAH) was 8.85.

`NC(=O)c1cccc(CCC2CCN(C(=O)Oc3cncc(C(N)=O)c3)CC2)c1` was tested, and the “effective oral administration dose (increased the reduced effective bladder capacity and improved the urinary frequency)” value [1] was 1 mg/kg.

`Cc1ccc(OC(=O)N2CCC(n3ccc(-c4ccccc4)n3)CC2)cn1` was tested, and the “Threshold of bladder pain (amount of physiological saline injected), compound-administered group” value ([2]; 120 minutes before measurement) was 0.138 Δ ml, the “Number of times of pain behavior, compound-administered group” value ([3]; 120 minutes before measurement) was 13.3 and the “effective oral administration dose (increased the reduced effective bladder capacity and improved the urinary frequency)” value [1] was 1 mg/kg.

In the case of `O=C(O)c1cncc(OC(=O)N2CCC(CCc3ccccc3)CC2)c1`, the “Threshold of bladder pain (amount of physiological saline injected), compound-administered group” value ([2]; 60 minutes before measurement) was 0.145 Δ ml, the “Number of times of pain behavior, compound-administered group” value ([3]; 60 minutes before measurement) was 10.4 and the “effective oral administration dose (increased the reduced effective bladder capacity and improved the urinary frequency)” value [1] was 1 mg/kg.

For `O=C(O)c1cncc(OC(=O)N2CCC(/C=C/c3ccccc3)CC2)c1`, the pIC50 (FAAH) was 8.82 and the “effective oral administration dose (increased the reduced effective bladder capacity and improved the urinary frequency)” value [1] was 1 mg/kg.

For `NC(=O)c1cncc(OC(=O)N2CCN(CCCCCc3ccccc3)CC2)c1`, the pIC50 (FAAH) was 10.08.
